In the test the test system is ME 180. As to the kind of experiment: Incorporation of 3H-thymidine, ME 180. Format: cell-based. Conditions: Homo sapiens, ME-180, read-out: TdR IC50 ME 180 (nM).

Usually IC50 stands for the point on the concentration scale where inhibition reaches its midpoint. For `CC1=C(/C=C/C(C)=C/C=C/C(C)=C/C(=O)O)C(C)(C)CCC1` [ATRA, all-trans retinoic acid], the IC50 turned out to be 253 nM.

Source of the values: patent US6005007A, “Retinoids, methods for their production and use” (priority 1997, dated 1999).
